Experimental data reported in PubChem BioAssay AID1961 (Sanford-Burnham Center for Chemical Genomics, 2009).
The list shows a part of the results, in another mix than the full data. Some salts and complexes are drawn in separate pieces, as the source files them; their charges need not balance. The source made the active and inactive calls.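 The calls were made as follows: active = activation above 40% with more than 50 cells counted in the well; inconclusive = wells holding fewer than 50 cells, flagged as toxic or sparse; inactive = the rest.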

Sequences of proteins named here, by UniProt entry; tags and fusion partners are left off.
UniProt Q9Y2T6, whole entry: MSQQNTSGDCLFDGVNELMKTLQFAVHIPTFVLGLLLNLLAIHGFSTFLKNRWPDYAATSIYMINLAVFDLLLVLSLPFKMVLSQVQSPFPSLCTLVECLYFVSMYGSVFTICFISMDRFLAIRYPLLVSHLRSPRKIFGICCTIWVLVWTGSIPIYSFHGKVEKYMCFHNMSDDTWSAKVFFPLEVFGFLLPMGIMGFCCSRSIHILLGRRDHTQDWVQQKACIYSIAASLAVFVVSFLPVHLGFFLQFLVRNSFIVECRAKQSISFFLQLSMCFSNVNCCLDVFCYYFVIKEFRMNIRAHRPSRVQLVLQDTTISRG

target: G-protein coupled receptor 55 (Homo sapiens) (UniProt Q9Y2T6); experiment: selective activators of receptor GPR55 – imaging, U2OS cells, beta-arrestin-GFP redistribution, primary screen (AID 1961); details: at 10 µM; stronger effect = higher value;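 as to activation: U2OS osteosarcoma cells stably expressing GPR55 and beta-arrestin-GFP; plate controls were DMSO negative control for no effect and LPI positive control for full effect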

SMILES | activation
COc1ccccc1OP(C)(=O)Nc1ccc(C)c(C)c1 (configuration not stated) | inactive: 0.2%
Cc1nc2ccc3ccccc3c2o1.O=[N+]([O-])c1cc([N+](=O)[O-])c(O)c([N+](=O)[O-])c1 | inactive: 0.4%
CP(=O)(Nc1ccc(Cl)cc1Cl)Oc1ccccc1 (configuration not stated) | inactive: 0.2%
CP(=O)(OCCOc1ccccc1)OCCOc1ccccc1 | inactive: -0.7%
COc1ccccc1OP(C)(=O)Nc1ccc(Br)cc1 (configuration not stated) | inactive: -0.3%
Clc1ccc(Cl)c(NC2=NCC(CBr)S2)c1 (configuration not stated) | inactive
CN(C)CCOC(=O)C(O)(c1ccccc1)C1CCCC1 (configuration not stated) | inactive
COc1ccc(OP(C)(=O)Nc2ccccn2)cc1 (configuration not stated) | inactive: -0.1%
Oc1ccccc1CNc1ccccn1 | inactive
Cc1c(NP(C)(=O)Oc2ccc(C(C)C)cc2)c(=O)n(-c2ccccc2)n1C (configuration not stated) | inactive: -0.1%
O=[N+]([O-])c1cc([N+](=O)[O-])c(Nc2ccccn2)c([N+](=O)[O-])c1 | inactive: 0.8%
CCc1ccc(OP(C)(=O)O)cc1 | inactive: -0.2%
COc1ccccc1OP(C)(=O)Nc1ccc(C)cc1C (configuration not stated) | inactive: -0.1%
CP(=O)(Nc1ccccn1)Oc1ccccc1 (configuration not stated) | inactive: 0.2%
COc1ccc(OP(C)(=O)Nc2ccc(Br)cc2)cc1 (configuration not stated) | inactive: -0.1%
CCN(CC)CC(O)COC(=O)C(O)(c1ccccc1)C1CCCCC1 (configuration not stated) | inactive
CCc1ccc(OP(C)(=O)Nc2cccnc2)cc1 (configuration not stated) | inactive: -0.3%
CP(=O)(Oc1ccccc1)N1CCOC1=O (configuration not stated) | inactive: -0.2%
O=C(OCCCN1CCCC1)C(O)(c1ccccc1)C1CCCCC1 (configuration not stated) | inactive: -0.1%
O=[N+]([O-])c1cccc2n[nH]nc12 | inactive
COc1ccccc1OP(C)(=O)Nc1c(C)n(C)n(-c2ccccc2)c1=O (configuration not stated) | inactive: -0.1%

SMILES | activation
CP(=O)(Nc1ccc(Cl)cc1)Oc1ccc(F)cc1 (configuration not stated) | inactive: -0.1%
C[N+]1=C2C=CC=CC=C2SC12C([N+](=O)[O-])=CC([N+](=O)[O-])=C[C-]2[N+](=O)[O-] (configuration not stated) | inactive
COc1ccccc1OP(C)(=O)Nc1ccccc1Br (configuration not stated) | inactive: -0.3%
CC(C)(C)c1ccc(OP(C)(=O)O)cc1 | inactive: -0.1%
Nc1ccc([As](=O)(O)c2ccc(N)cc2)cc1 | inactive
CC1CCN(C(=O)Oc2c(Cl)cc(Cl)c3cccnc23)CC1 | inactive
CN(C)C(=O)c1c([N+](=O)[O-])cc([N+](=O)[O-])cc1[N+](=O)[O-] | inactive: -0.3%
CC(C)=N/N=C(\N)N[N+](=O)[O-] | inactive
CP(=O)(OC12CC3CC(CC(C3)C1)C2)OC12CC3CC(CC(C3)C1)C2 | inactive: 0%
CCOC(=O)c1ccc(NP(C)(=O)Oc2ccc(Cl)cc2)cc1 (configuration not stated) | inactive: -0.3%
O=[N+]([O-])c1cccc(NC2=NCC(CBr)S2)c1 (configuration not stated) | inactive
O=P(Nc1ccccn1)(c1ccc(Br)cc1)c1ccc(Br)cc1 | inactive
COc1ccc(OP(C)(=O)Nc2cccc(Br)c2)cc1 (configuration not stated) | inactive: -0.1%
COc1ccc(NP(C)(=O)Oc2ccccc2OC)cc1 (configuration not stated) | inactive: -0.7%
CN(C)CCOC(=O)C(O)(c1ccccc1)C1CCCCC1 (configuration not stated) | inactive: 0%
O=[N+]([O-])c1cc([N+](=O)[O-])c(NCC2CCS(=O)(=O)C2)c([N+](=O)[O-])c1 (configuration not stated) | inactive: -0.3%
Cc1cc(-c2cccc3ccccc23)c(C)cn1.O=[N+]([O-])c1cc([N+](=O)[O-])c(O)c([N+](=O)[O-])c1 | inactive: -0.3%
O=[As](O)(c1ccccc1)c1ccc(O)cc1 | inactive
O=[N+]([O-])c1ccc(O)c(/C=N/Nc2ccc([N+](=O)[O-])cc2[N+](=O)[O-])c1 | inactive
O=[N+]([O-])c1ncn(CCn2cnc([N+](=O)[O-])n2)n1 | inactive
O=[N+]([O-])c1ccc(OP2(=O)COCCO2)cc1 (configuration not stated) | inactive: 0.2%

SMILES | activation
O=C(OC1CN2CCC1CC2)c1cccc(Cl)c1 (configuration not stated) | inactive
CP(=O)(Nc1ccc(SC(F)(F)F)cc1)Oc1ccc(F)cc1 (configuration not stated) | inactive: -0.3%
CCOP(C)(=S)SCC(=O)NC(C)(CC)C(=O)O (configuration not stated) | inactive: -0.4%
CP(=O)(Nc1ccc2c(c1)OCCO2)Oc1ccccc1 (configuration not stated) | inactive: -0.2%
Cc1ccccc1NP(C)(=O)Nc1ccccc1C | inactive: -0.1%
CC(C)c1ccc(OP(C)(=O)Nc2ccc(SC(F)(F)F)cc2)cc1 (configuration not stated) | inactive: 1.3%
CP(=O)(Nc1ccccc1F)Oc1ccccc1 (configuration not stated) | inactive: 0.6%
O=C(OCCN1CCN(CCOCc2ccccc2)CC1)C(O)(c1ccccc1)c1ccccc1 | inactive: 1.1%
O=C(OC1CN2CCC1CC2)c1ccc([N+](=O)[O-])cc1 (configuration not stated) | inactive: -0.1%
CC(=O)c1ccc(N2CC2c2ccncc2)cc1 (configuration not stated) | inactive
COc1ccc2c(c1O)-c1c(O)c(OC)cc3c1[C@H](C2)[N+](C)(C)CC3.O=[N+]([O-])c1cc([N+](=O)[O-])c([O-])c([N+](=O)[O-])c1[O-] | inactive: 0.7%
CCOC(=O)NC(Sc1ccccc1)C(Cl)(Cl)Cl (configuration not stated) | inactive
CCNC(=S)/N=C(\N)N[N+](=O)[O-] | inactive
COc1ccc(OP(C)(=O)Nc2ccc(SC(F)(F)F)cc2)cc1 (configuration not stated) | inactive: 0%
CCOC(=O)c1ccc(NP(C)(=O)Oc2ccc(F)cc2)cc1 (configuration not stated) | inactive: -0.2%
CCN(CC)CCCOC(=O)C(O)(c1ccccc1)C1CCCCC1 (configuration not stated) | inactive: -0.2%
O=C(OC1CN2CCC1CC2)c1ccccc1 (configuration not stated) | inactive
CCCCCOc1ccc(NP(C)(=O)Oc2ccc(Cl)cc2Cl)cc1 (configuration not stated) | inactive: -0.3%
O=[N+]([O-])c1cc([N+](=O)[O-])c(OC2CCCCC2O)c([N+](=O)[O-])c1 (configuration not stated) | inactive: -0.2%
CP(=O)(Nc1ccccc1)Oc1ccc(F)cc1 (configuration not stated) | inactive: -0.2%
